The values below come from PMC6445123 (Scientific Reports, 2019).

By UniProt entry, the sequences of proteins in these tests, tags left out. Where a name states a change or a piece, a line headed by the entry shows the natural chain unless it says otherwise. Chains listed by the source or under a name are the forms on record and can include a tag or linker. Residues count along the entry.
UniProt P55212, 194-293 limits assumed: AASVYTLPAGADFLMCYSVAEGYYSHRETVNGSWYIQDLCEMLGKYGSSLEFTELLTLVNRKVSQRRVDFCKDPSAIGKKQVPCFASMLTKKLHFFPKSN
UniProt P55212, 24-193 with tags or gaps with the stated changes limits assumed: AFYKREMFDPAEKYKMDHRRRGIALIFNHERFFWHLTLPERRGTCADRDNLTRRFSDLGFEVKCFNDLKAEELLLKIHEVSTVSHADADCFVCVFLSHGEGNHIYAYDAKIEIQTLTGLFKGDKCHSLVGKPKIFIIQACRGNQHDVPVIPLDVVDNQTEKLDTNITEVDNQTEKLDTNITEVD

In assay [1] the target is T1, active Casp6 (Casp6-WT) (Homo sapiens, UniProt P55212, INS179NQTEKLDTNITEVD). Nature of the assay: Fluorescence-based Ac-VEID-AFC cleavage assay (Casp6 activity, IC50 determination). The settings on record: for % Inhibition with 100 µM compound (fluorescence assay) / IC50: 10 µM Ac-VEID-AFC; for % Inhibition with 100 µM compound (fluorescence assay): 20 nM Casp6, relative to 1% DMSO control; for fold increase in IC50 (reduction in potency) compared to C13: Casp6-WT; for IC50: fluorescence assay, 20 nM Casp6 active sites. The protocol:
(§1) To assess the potency of in silico hits, a fluorescence-based Ac-VEID-AFC cleavage assay was used to measure recombinant active Casp6 reaction rate in the absence or presence of 100 µM concentration of compounds. A 30% inhibition cut off was arbitrarily chosen for further investigation of putative inhibitors. […] AFC signal interference by compound intrinsic fluorescence was ruled out (Fig. S4). Casp6 inhibition was confirmed for seven compounds (C7, C13, C14, S2, S10, S11 and S13) using a colorimetric Ac-VEID-pNA cleavage assay (Table 2, Fig. S3). […] The hits had IC50 values ranging from 13.2 µM to 289 µM (Table 2).
Casp6 active sites were quantified using zVAD-FMK (N-benzyloxycarbonyl-Val-Ala-Asp-(O-methyl)-fluoromethylketone, MP Biomedicals, Santa Ana, CA, USA)[51],[64]. Casp6 activity was measured in Stennicke’s buffer (SB: 20 mM piperazine-N,N′-bis-(2-ethanesulfonic acid) pH 7.2, 100 mM NaCl, 10 mM DTT, 1 mM EDTA, 0.1% 3-[(3-cholamidopropyl)-dimethylammonio]-2-hydroxy-1-propanesulfonic acid, 10% sucrose)[65] using 40 µM Ac-VEID-AFC (Ac-Val-Glu-Ile-Asp-7-Amino-4-trifluoromethylcoumarin, Enzo Life Sciences, Farmingdale, NY, USA)[64] and 10-250 nM active site titrated Casp6. Reactions were initiated by Ac-VEID-AFC addition and followed for 20 min at 37 °C in a black clear bottom 96-well microplate (Costar, Corning, NY, USA) in Synergy H4 Hybrid instrument (BioTek, Winooski, VT, USA) with excitation/emission at 380/505 nm. Released AFC was calculated from AFC standard curve (0-25 µM). Casp6 VEIDase activity (released pmol AFC/min) was calculated from the initial linear reaction part. Ac-VEID-AFC hydrolysis initial velocities were measured with 10 nM active-site titrated Casp6 and […] Ac-VEID-AFC. Initial velocities v versus substrate concentration [S] were fit to a rectangular hyperbola using Michaelis-Menten equation in GraphPad Prism 5 (GraphPad Software, La Jolla, CA, USA).
(§2) In fluorescence-based Casp6 activity assay, 10 µM Ac-VEID-AFC was added to 20 nM Casp6 in SB with 100 μM compound and 1% dimethyl sulfoxide (DMSO), and reaction rate was measured for 20 min at 37 °C as above. Compound potency was calculated by normalising Ac-VEID-AFC cleavage rate to 1% DMSO control. In colorimetric Casp6 activity assay, 200 µM Ac-VEID-pNA (N-acetyl-Val-Glu-Ile-Asp-p-nitroanilide, Enzo Life Sciences) was added to 200 nM Casp6 in SB with 100 μM compound, and Ac-VEID-pNA cleavage rate was measured at 37 °C for 30 min in clear 96-well plate (Sartstedt, Nümbrecht, Germany) using Synergy H4 plate reader at 405 nm. Absorbance was converted to the released pNA amount based on a standard curve of 0–250 µM pNA. Cleavage rates were calculated from the linear assay phase and were normalised to 1% DMSO control. In Casp6-C163A cleavage assay, 0.5 ng/µl Casp6-WT was preincubated with 100 µM inhibitor, 5 µM Q-VD-OPh or 1% DMSO in SB (30 min, RT), followed by transfer on ice, addition of 0.5 µg/µl Casp6-C163A, and incubation (37 °C, 5, 10 and 15 min). Reactions were stopped by adding SDS-PAGE sample buffer (62.5 mM Tris pH 6.8, 2% SDS, 0.1 M DTT, 0.01% Bromphenol Blue, 10% glycerol) and heating (5 min, 95 °C). Samples (2 µl) were analysed on 15% SDS-PAGE gels, proteins were stained with Coomassie blue, and gels were de-stained with 10% acetic acid. The intensities of protein bands were quantified from scanned gels using ImageJ. The band intensity of Casp6-C163A without a prodomain was plotted against the time and the Casp6-C163A cleavage rates were calculated from the slopes of linear plots. The % activity of Casp6-WT in the presence of inhibitors was calculated relative to DMSO control.
IC50 values were determined against 20 nM Casp6 active sites in fluorescence-based Casp6 activity assay with 10 µM Ac-VEID-AFC and 1 nM-500 µM inhibitor. […]

The target in the next assay is recombinant active Casp6 (Homo sapiens, UniProt P55212, INS179NQTEKLDTNITEVD). Put plainly: Colorimetric Ac-VEID-pNA cleavage assay. The settings on record: 200 µM Ac-VEID-pNA, 200 nM Casp6. The protocol:
as §1, §2

For assay [2], the target named is T1, active Casp6 (Casp6-WT). Nature of the assay: Casp6-C163A cleavage assay (prodomain cleavage of catalytically inactive Casp6-C163A by active Casp6). Conditions: rate of Casp6-C163A prodomain cleavage vs DMSO control. The protocol:
as §1, §2

“And” between values parts separate entries of the source, which are not always exact repeats. Equal entries are not always repeated. Marks after values point to notes of the source that are not given here.

Take `COC(=O)c1cc(CNC(=O)C2Cc3ccccc3O2)cc(NC(=O)Cc2ccccc2)c1` (stereo not shown): on active Casp6 (Casp6-WT) [1], the “% Inhibition with 100 µM compound (fluorescence assay)” value (shortened to “% Inhibition … (fluorescence assay)”) is recorded as 21.8 ± 2.5^a % and the “fold increase in IC50 (reduction in potency) compared to C13” value is 117 fold.

On to `Cc1nn(-c2ccccc2)c2sc(C(=O)Nc3c(C)n(C)n(-c4ccccc4)c3=O)cc12`, for which, at active Casp6 (Casp6-WT) [1], the “% Inhibition … (fluorescence assay)” value came to 31.8 ± 4.8% and the IC50 came out at 90 µM. In addition, on recombinant active Casp6, the “% Inhibition with 100 µM compound (colorimetric assay)” value (shortened to “% Inhibition … (colorimetric assay)”) amounted to 52.9 ± 4.1%.

Consider `CC1CCCCN1C(=O)Cn1cc(C=C2C(=O)NC(=O)N(Cc3ccco3)C2=O)c2ccccc21` (stereo not shown), for which, on active Casp6 (Casp6-WT) [1], the “% Inhibition … (fluorescence assay)” value was determined as 81.3 ± 3.3% and the IC50 is 16.4 µM. The “% Inhibition … (colorimetric assay)” value at recombinant active Casp6 was found to be 43.7 ± 3.1%.

Regarding `COc1cccc(CN2CCNC(=O)C2CC(=O)NCc2cnn(-c3ccccc3C)c2)c1` (stereo not shown), at active Casp6 (Casp6-WT) [1], the “% Inhibition … (fluorescence assay)” value is on record as 38.9 ± 5.5% and the IC50 was found to be 44.1 µM. The “% Inhibition … (colorimetric assay)” value on recombinant active Casp6 is 92.0 ± 0.3%.

As for `O=C1NC(=O)N(Cc2ccco2)C(=O)C1=Cc1cn(CC(=O)N2CCOCC2)c2ccccc12`, at active Casp6 (Casp6-WT) [1], the “% Inhibition … (fluorescence assay)” value stood at 94.6 ± 1.1% and the half-inhibitory concentration (IC50) worked out at 12.8 µM. Also, the “% Inhibition … (colorimetric assay)” value on recombinant active Casp6 is listed as 46.8 ± 7.4%.

For `COCCNC(=O)Cn1cc(C=C2C(=O)NC(=O)N(Cc3ccco3)C2=O)c2ccccc21`, on active Casp6 (Casp6-WT) [1], the “% Inhibition … (fluorescence assay)” value is reported as 92.3 ± 2.7% and the IC50 came to 16.5 µM. Besides, the “% Inhibition … (colorimetric assay)” value on recombinant active Casp6 was 53.4 ± 10.4%.

For the compound `O=C1NC(=S)N(Cc2ccco2)C(=O)C1=Cc1cn(CC(=O)N2CCOCC2)c2ccccc12`, at active Casp6 (Casp6-WT) [1], the “% Inhibition … (fluorescence assay)” value worked out at 81.7 ± 2.0% and the IC50 is 7.6 µM. The “fold lower IC50 than S10” value at active Casp6 (Casp6-WT) [1] (compared with IC50 of S10 (30.2 µM)) is recorded as ~ 3.8 fold. In addition, the “% Inhibition with 100 µM compound (Casp6-C163A cleavage assay)” value (shortened to “% Inhibition … (Casp6-C163A cleavage assay)”) at active Casp6 (Casp6-WT) [2] was 81.7 ± 3.4%.

Regarding `O=c1nc(CSc2nnnn2-c2ccc(Cl)cc2)[nH]c2ccccc12`, on active Casp6 (Casp6-WT) [1], the “% Inhibition … (fluorescence assay)” value came to 34.0 ± 5.0% and the IC50 came to 142 µM. In addition, on recombinant active Casp6, the “% Inhibition … (colorimetric assay)” value stood at 60.2 ± 6.5%.

As to `O=C(Cn1cc(C(=O)COc2ccccc2)c2ccccc21)NCc1ccco1`, at active Casp6 (Casp6-WT) [1], the “% Inhibition … (fluorescence assay)” value was determined as 59.3 ± 2.5%; the IC50 was 80 µM and 79.9 µM. The “% Inhibition … (colorimetric assay)” value on recombinant active Casp6 was 44.7 ± 4.7%.

Take `COC(=O)c1cc(CNC(=O)c2cccc3c(C)c(C)[nH]c23)cc(NC(=O)c2ccco2)c1`: on active Casp6 (Casp6-WT) [1], the “% Inhibition … (fluorescence assay)” value is given as 24.7 ± 1.7^a % and the “fold increase in IC50 (reduction in potency) compared to C13” value is recorded as 55 fold.

Turning to `O=C1NC(=O)N(Cc2ccco2)C(=O)C1=Cc1cn(CC(=O)N2CCCCC2)c2ccccc12`, on active Casp6 (Casp6-WT) [1], the “% Inhibition … (fluorescence assay)” value is recorded as 96.8 ± 0.7% and the IC50 worked out at 11 µM. In addition, the “% Inhibition … (colorimetric assay)” value at recombinant active Casp6 is 62.9 ± 6.8%.

Regarding `COCCNC(=O)Cn1cc(C=C2C(=O)NC(=S)N(Cc3ccco3)C2=O)c2ccccc21`, on active Casp6 (Casp6-WT) [1], the “% Inhibition … (fluorescence assay)” value is 74.3 ± 5.8% and the IC50 was found to be 16.8 µM. For the same compound, on active Casp6 (Casp6-WT) [2], the “% Inhibition … (Casp6-C163A cleavage assay)” value is 81.8 ± 4.6%.

On to `NC(=O)Cn1cc(C=C2C(=O)NC(=O)N(Cc3ccco3)C2=O)c2ccccc21`, for which, at active Casp6 (Casp6-WT) [1], the “% Inhibition … (fluorescence assay)” value is recorded as 92.0 ± 6.7% and the IC50 was found to be 10.5 µM. Besides, at recombinant active Casp6, the “% Inhibition … (colorimetric assay)” value worked out at 64.4 ± 14.7%.

On to `O=C(CCN1C(=O)C(=Cc2ccccc2Cl)SC1=S)NC12CC3CC(CC(C3)C1)C2`, for which, on active Casp6 (Casp6-WT) [1], the “% Inhibition … (fluorescence assay)” value amounted to 32.3 ± 4.3% and the IC50 turned out to be 123 µM.

In the case of `Cc1nc(Nc2nc(CSc3ccccn3)cc(=O)[nH]2)nc2ccccc12`, at active Casp6 (Casp6-WT) [1], the “% Inhibition … (fluorescence assay)” value came to 30.3 ± 1.7% and the IC50 came out at 233 µM. Besides, on active Casp6 (Casp6-WT) [2], the “% Inhibition … (Casp6-C163A cleavage assay)” value was ~ 30% and 23.8 ± 20.0%.

For the compound `COCCCNC(=O)Cn1cc(C=C2C(=O)NC(=O)N(Cc3ccco3)C2=O)c2ccccc21`, at active Casp6 (Casp6-WT) [1], the “% Inhibition … (fluorescence assay)” value stood at 93.7 ± 0.8% and the IC50 was found to be 12.9 µM. For the same compound, on recombinant active Casp6, the “% Inhibition … (colorimetric assay)” value came to 52.5 ± 6.5%.

With `O=C(Cn1cc(C=C2C(=O)NC(=S)N(Cc3ccco3)C2=O)c2ccccc21)NCC1CCCO1` (stereo not shown), on active Casp6 (Casp6-WT) [1], the “% Inhibition … (fluorescence assay)” value was determined as 89.0 ± 3.0% and the IC50 is 4.4 µM. For the same compound, the “% Inhibition … (Casp6-C163A cleavage assay)” value at active Casp6 (Casp6-WT) [2] was determined as 90.5 ± 5.2%.

In the case of `NC(=O)c1c(NC(=O)CSc2nc(-c3ccccc3)cc(=O)[nH]2)sc2c1CCCC2`, at active Casp6 (Casp6-WT) [1], the “% Inhibition … (fluorescence assay)” value amounted to 34.9 ± 5.1% and the IC50 turned out to be 110 µM. For the same compound, on active Casp6 (Casp6-WT) [2], the “% Inhibition … (Casp6-C163A cleavage assay)” value is ~ 30% and 27.8 ± 14.0%.

Consider `O=C(CC1C(=O)NCCN1Cc1ccc(F)cc1Cl)NC1CCCCCCC1` (stereo not shown), for which, at active Casp6 (Casp6-WT) [1], the “% Inhibition … (fluorescence assay)” value worked out at 33.3 ± 4.8% and the IC50 stood at 46.4 µM. Moreover, the “% Inhibition … (Casp6-C163A cleavage assay)” value at active Casp6 (Casp6-WT) [2] was ~ 30% and 28.7 ± 7.4%.

As to `O=C1NC(=O)N(Cc2ccco2)C(=O)C1=Cc1cn(CC(=O)N2CCCC2)c2ccccc12`, at active Casp6 (Casp6-WT) [1], the “% Inhibition … (fluorescence assay)” value is recorded as 96.3 ± 1.6% and the IC50 is 9.8 µM. The “% Inhibition … (colorimetric assay)” value on recombinant active Casp6 was found to be 53.3 ± 7.8%.
